The source of these data is US20260125400A1, “TYK2 DEGRADERS AND USES THEREOF” (Kymera Therapeutics, Inc., priority 2023, published 2026).

Protein sequences, listed by entry. Tags and fused reporters are not part of them.
UniProt P29597, whole entry: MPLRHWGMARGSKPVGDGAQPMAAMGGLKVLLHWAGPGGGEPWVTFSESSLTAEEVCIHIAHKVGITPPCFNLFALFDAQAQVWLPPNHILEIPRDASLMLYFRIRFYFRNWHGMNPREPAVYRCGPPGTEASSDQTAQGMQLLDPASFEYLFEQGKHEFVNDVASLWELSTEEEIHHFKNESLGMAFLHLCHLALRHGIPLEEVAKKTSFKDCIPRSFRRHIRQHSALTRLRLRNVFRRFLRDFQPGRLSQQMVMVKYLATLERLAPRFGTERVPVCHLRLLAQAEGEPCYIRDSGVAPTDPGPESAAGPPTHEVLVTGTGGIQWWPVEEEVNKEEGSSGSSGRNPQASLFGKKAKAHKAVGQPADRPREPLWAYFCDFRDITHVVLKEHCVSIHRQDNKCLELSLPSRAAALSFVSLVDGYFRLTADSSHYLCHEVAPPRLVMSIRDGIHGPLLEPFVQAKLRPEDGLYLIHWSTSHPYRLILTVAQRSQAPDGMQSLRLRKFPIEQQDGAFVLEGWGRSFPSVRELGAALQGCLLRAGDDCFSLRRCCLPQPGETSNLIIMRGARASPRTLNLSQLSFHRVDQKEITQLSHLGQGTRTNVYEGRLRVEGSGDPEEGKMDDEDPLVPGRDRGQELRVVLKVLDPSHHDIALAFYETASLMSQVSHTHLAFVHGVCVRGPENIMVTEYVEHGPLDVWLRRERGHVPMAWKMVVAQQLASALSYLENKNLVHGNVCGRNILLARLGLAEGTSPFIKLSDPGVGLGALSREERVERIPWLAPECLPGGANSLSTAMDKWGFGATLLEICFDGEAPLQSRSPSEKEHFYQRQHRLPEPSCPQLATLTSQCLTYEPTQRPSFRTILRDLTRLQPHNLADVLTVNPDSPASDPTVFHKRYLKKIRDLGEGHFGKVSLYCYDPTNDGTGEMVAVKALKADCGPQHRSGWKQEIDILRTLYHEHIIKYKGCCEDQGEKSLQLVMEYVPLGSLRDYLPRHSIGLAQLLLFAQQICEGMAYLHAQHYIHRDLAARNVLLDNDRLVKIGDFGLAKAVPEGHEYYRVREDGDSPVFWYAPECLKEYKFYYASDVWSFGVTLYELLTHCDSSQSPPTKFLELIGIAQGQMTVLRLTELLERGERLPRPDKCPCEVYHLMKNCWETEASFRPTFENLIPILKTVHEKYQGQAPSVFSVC

Like-named read-outs stand apart in the source and are kept apart here.

The assay has as its target TYK2 (Homo sapiens, UniProt P29597). The experiment in a line: TYK2 MSD degradation in OCI-LY10 cells. The note with it: for TYK2 MSD OCI-LY10 Dmax %: 4 to 24 hours incubation.
Where [1] appears, read: read-out: TYK2 MSD OCI-LY10 Rel-DC50, OCI-LY10 cells, 4 to 24 hours incubation.
Setting [2] is: TYK2 degradation in OCI-LY10 cells.
Setting [3] is: read-out: TYK2 MSD OCI-LY10 Rel-DC50, TYK2 degradation in OCI-LY10 cells, 4 to 24 hours incubation.

What is called DC50 is the concentration at which degradation of the target reaches its halfway point.

`CNc1cc(N2CCc3c(-c4ccc(CN5CC6(CCN(C(=O)c7ccc(Cl)c(N8CCC(=O)NC8=O)c7)CC6(F)F)C5)cn4)cccc32)nn2c(C(=O)N[C@@H]3CC3(F)F)cnc12`: the “TYK2 MSD OCI-LY10 Dmax %” value (OCI-LY10 cells) was “B (B (90 to >75%))”. The DC50 under setting [1] is less than 1 nM.

Take `CNc1cc(N2CCc3c(N4CCC(CN5CCC(CN6CCN(C(=O)c7cc(N8CCC(=O)NC8=O)c(Cl)c(C)n7)CC6)C(F)(F)C5)CC4)cccc32)nn2c(C(=O)N[C@@H]3CC[C@H]3OC)cnc12` (stereo partly drawn): under setting [2], the “TYK2 MSD OCI-LY10 Dmax %” value was “B (B (90 to >75%))”. Also, the 50% degradation concentration (DC50) under setting [3] is less than 1 nM.

For `CNc1cc(N2CCc3cc(CN4CC5(CCN(C(=O)c6ccc(Cl)c(N7CCC(=O)NC7=O)c6)CC5)C4)ccc32)nn2c(C(=O)N[C@@H]3C[C@@H]3F)cnc12`, the “TYK2 MSD OCI-LY10 Dmax %” value (OCI-LY10 cells) is listed as “D (D (<50%))”. For the same compound, under setting [1], the 50% degradation concentration (DC50) was more than 100 nM.

As for `COC1(c2cc(-c3ccc(CN4CCC(N5CCN(c6ccc7c(C8CCC(=O)NC8=O)nn(C)c7c6)CC5)C(F)(F)C4)cn3)cc(-c3cn(C)c4cnc(NC(C)=O)cc34)n2)CCOC1` (stereo not drawn), the “TYK2 MSD OCI-LY10 Dmax %” value under setting [2] is “B (B (90 to >75%))”. Also, the DC50 under setting [3] is less than 1 nM.

Consider `CNc1cc(N2CCc3c(CN4CCC(N5CCC(CC6CCN(C(=O)c7cc(C)c(Cl)c(N8CCC(=O)NC8=O)c7)CC6)CC5)C(F)(F)C4)cccc32)nn2c(C(=O)N[C@@H]3CC[C@H]3OC)cnc12` (stereo partly drawn), for which the “TYK2 MSD OCI-LY10 Dmax %” value under setting [2] is “A (A (>90%))”. For the same compound, the DC50 under setting [3] is less than 1 nM.

Regarding `CO[C@@]1(c2cc(C)cc(-c3cn(CCC4CCN(CC5CCN(c6ccc(C7CCC(=O)NC7=O)c(Cl)c6)CC5)CC4)c4cnc(NC(C)=O)cc34)n2)CCOC1` (stereo partly drawn), the “TYK2 MSD OCI-LY10 Dmax %” value under setting [2] is “D (D (<50%))”. Moreover, the half-maximal degradation concentration (DC50) under setting [3] is less than 10 nM.

As for `CNc1cc(N2CCc3c(-c4ccc(CN5CCC6(CCN(C(=O)c7ccc(Cl)c(N8CCC(=O)NC8=O)c7)CC6)C(F)(F)C5)cn4)cc(F)cc32)nn2c(C(=O)N[C@@H]3C[C@@H]3F)cnc12`, the “TYK2 MSD OCI-LY10 Dmax %” value (OCI-LY10 cells) is recorded as “B (B (90 to >75%))”. Under setting [1], the half-maximal degradation concentration (DC50) is less than 10 nM.

For `CO[C@@]1(c2cc(C)cc(-c3cn(C4CCN(CC5CCN(c6ccc(NC7CCC(=O)NC7=O)cc6F)CC5)CC4)c4cnc(NC(C)=O)cc34)n2)CCOC1` (stereo partly drawn), the “TYK2 MSD OCI-LY10 Dmax %” value under setting [2] is on record as “D (D (<50%))”. Besides, the DC50 under setting [3] is more than 100 nM.

Turning to `CCNC(=O)c1nnc(Nc2ccc(CN3CCC4(CN(c5cccc6c5n(C)c(=O)n6C5CCC(=O)NC5=O)C4)C(F)(F)C3)cn2)cc1Nc1cccc(F)c1OC` (stereo not drawn), the “TYK2 MSD OCI-LY10 Dmax %” value under setting [2] was “D (D (<50%))”. The half-maximal degradation concentration (DC50) under setting [3] is more than 100 nM.

In the case of `CNc1cc(N2CCc3c(-c4ccc(CN5CCN(CC#Cc6cccc(N7CCC(=O)NC7=O)c6C)CC5)cn4)cccc32)nn2c(C(=O)N[C@@H]3C[C@@H]3F)cnc12`, the “TYK2 MSD OCI-LY10 Dmax %” value (OCI-LY10 cells) is “C (C (75 to 50%))”. Further, the DC50 under setting [1] is more than 100 nM.

Regarding `CNc1cc(N2CCc3c(-c4ccc(CN5CCC6(CCN(C(=O)c7ccc(Cl)c(N8CCC(=O)NC8=O)c7)CC6)C(F)(F)C5)nn4)cccc32)nn2c(C(=O)N[C@@H]3C[C@@H]3F)cnc12`, the “TYK2 MSD OCI-LY10 Dmax %” value under setting [2] is given as “A (A (>90%))”. For the same compound, under setting [3], the 50% degradation concentration (DC50) was less than 1 nM.

Turning to `CO[C@@]1(c2cc(C)cc(-c3cn(C4CCN(C(=O)c5ccc(Cl)c(N6CCC(=O)NC6=O)c5)CC4)c4cnc(NC(C)=O)cc34)n2)CCOC1`, the “TYK2 MSD OCI-LY10 Dmax %” value under setting [2] is on record as “D (D (<50%))”. Further, the DC50 under setting [3] was more than 100 nM.

For the compound `CNc1cc(N2CCc3c(CN4CCC(N5CCC6(CCN(C(=O)c7ccc(Cl)c(N8CCC(=O)NC8=O)c7)C6)CC5)C(F)(F)C4)cccc32)nn2c(C(=O)N[C@@H]3C[C@@H]3F)cnc12` (stereo partly drawn), the “TYK2 MSD OCI-LY10 Dmax %” value under setting [2] was “A (A (>90%))”. The half-maximal degradation concentration (DC50) under setting [3] was less than 1 nM.

With `CNc1cc(N2CCc3c(CN4CCC(CN5CCN(C(=O)c6ccc(Cl)c(C7CCC(=O)NC7=O)c6)CC5)CC4)cccc32)nn2c(C(=O)N[C@@H]3C[C@@H]3F)cnc12` (stereo partly drawn), under “OCI-LY10 cells”, the “TYK2 MSD OCI-LY10 Dmax %” value was “D (D (<50%))”. Further, the DC50 under setting [1] is less than 10 nM.

For `CNc1cc(N2CCc3c(N4CC[C@H](CN5CCN(c6ccc7c(c6)n(C)c(=O)n7C6CCC(=O)NC6=O)CC5)C4)cccc32)nn2c(C(=O)NC3CC3)cnc12` (stereo partly drawn), the “TYK2 MSD OCI-LY10 Dmax %” value under setting [2] is given as “C (C (75 to 50%))”. Moreover, the 50% degradation concentration (DC50) under setting [3] is less than 1 nM.
